How the values were obtained:
human MOR [1] = target: T1, human MOR (Homo sapiens, UniProt P35372); assay: cAMP accumulation assay (GloSensor) in CHO-hMOR-p22F cells; type: cell-based
T1 construct: expressed in transfected cells; host or cells: CHO (Chinese hamster ovary) cells stably expressing human MOR; gift from Dr. Lawrence Toll, SRI International
Protocol: Inhibition of the forskolin-stimulated intracellular cAMP accumulation in CHO cells co-expressing the hMOR and the cAMP biosensor GloSensor-22F (CHO-hMOR-p22F cells) was performed using the Glo-Sensor^TM cAMP assay (Promega), according to the manufacturer’s instructions. Cells were seeded in growth medium into 384-well plates at a density of 5,000 cells in 30 μL per well and incubated overnight. On the day of assay, culture media was removed, and cells were pre-equilibrated for 90 min with 4% v/v of the GloSensor cAMP reagent in reaction medium (20 mM HEPES, 1 × HBSS, pH 7.4) at 37 °C and 5% CO2. […]. Forskolin (10 μM) was added to each well, and luminescence was measured after 20 min. All experiments were performed in triplicate and repeated at least three times.

The chains behind the UniProt entries cited, without tags or fusion partners.
UniProt P35372, whole entry: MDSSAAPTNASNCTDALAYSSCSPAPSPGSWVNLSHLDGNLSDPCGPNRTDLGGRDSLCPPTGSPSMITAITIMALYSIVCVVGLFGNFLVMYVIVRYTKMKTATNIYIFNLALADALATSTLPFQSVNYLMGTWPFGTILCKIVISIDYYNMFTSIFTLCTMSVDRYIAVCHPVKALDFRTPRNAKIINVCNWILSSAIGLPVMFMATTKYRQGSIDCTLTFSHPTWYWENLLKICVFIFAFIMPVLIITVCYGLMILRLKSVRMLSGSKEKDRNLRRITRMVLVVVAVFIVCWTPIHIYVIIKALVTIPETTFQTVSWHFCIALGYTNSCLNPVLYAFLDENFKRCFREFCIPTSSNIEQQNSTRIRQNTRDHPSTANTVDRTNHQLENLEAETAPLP

human MOR [2] = target: T1, human MOR; assay: [35S]GTPγS binding assay in CHO-hMOR cell membranes; type: biochemical; settings: agonist mode
Protocol: Determination of [^35S]GTPγS binding to CHO-hMOR cell membranes were performed as described previously. Cell membranes (5–10 μg protein), prepared as described for the radioligand MOR binding assay, were incubated in the absence or in the presence of test compound in the assay buffer (20 mM HEPES, 100 mM NaCl, 10 mM MgCl2, pH 7.4) containing [^35S]GTPγS (0.05 nM) and GDP (10 nM) in a total volume of 1.0 mL for 60 min at 25 °C. Nonspecific binding was determined using 10 μM GTPγS, and the basal binding was determined in the absence of test compound. Samples were filtered over glass fiber filters and counted as described for the radioligand binding assays. […]. The antagonist equilibrium dissociation constant Ke for 4 was calculated using the equation Ke = [a]/(DR − 1), where “a” is the concentration of antagonist. All experiments were performed in duplicate and repeated at least three times.

[D-Ala^2, Me-Phe^4, Glyol^5]enkephalin [DAMGO, reference compound]
inhibition of the forskolin-stimulated cAMP production (human MOR [1]): concentration-dependent inhibition
stimulation of [35S]GTPγS binding (human MOR [2]): high potency and stimulatory effect
